The values that follow come from publication PMC5091859, “Protein Translation Enzyme lysyl-tRNA Synthetase Presents a New Target for Drug Development against Causative Agents of Loiasis and Schistosomiasis” (PLoS Neglected Tropical Diseases, 2016).

Amino acid sequences for entries named in this document (tags omitted).
UniProt A0A1I7VQ84, entry or part of it: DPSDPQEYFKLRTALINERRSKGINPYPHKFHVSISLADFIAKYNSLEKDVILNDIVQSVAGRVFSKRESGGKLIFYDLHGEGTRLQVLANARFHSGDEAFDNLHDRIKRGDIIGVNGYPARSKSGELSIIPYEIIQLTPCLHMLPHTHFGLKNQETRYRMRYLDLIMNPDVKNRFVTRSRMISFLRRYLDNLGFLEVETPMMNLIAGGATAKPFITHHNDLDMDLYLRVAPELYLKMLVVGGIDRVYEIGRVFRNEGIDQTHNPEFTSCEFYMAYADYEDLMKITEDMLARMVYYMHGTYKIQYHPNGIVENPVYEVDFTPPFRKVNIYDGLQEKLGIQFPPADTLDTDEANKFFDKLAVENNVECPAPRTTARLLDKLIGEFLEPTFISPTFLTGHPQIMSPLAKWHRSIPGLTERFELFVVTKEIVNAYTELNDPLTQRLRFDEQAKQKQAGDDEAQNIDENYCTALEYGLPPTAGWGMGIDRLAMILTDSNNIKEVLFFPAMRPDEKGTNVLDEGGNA
UniProt A0A3Q0KK01, entry or part of it: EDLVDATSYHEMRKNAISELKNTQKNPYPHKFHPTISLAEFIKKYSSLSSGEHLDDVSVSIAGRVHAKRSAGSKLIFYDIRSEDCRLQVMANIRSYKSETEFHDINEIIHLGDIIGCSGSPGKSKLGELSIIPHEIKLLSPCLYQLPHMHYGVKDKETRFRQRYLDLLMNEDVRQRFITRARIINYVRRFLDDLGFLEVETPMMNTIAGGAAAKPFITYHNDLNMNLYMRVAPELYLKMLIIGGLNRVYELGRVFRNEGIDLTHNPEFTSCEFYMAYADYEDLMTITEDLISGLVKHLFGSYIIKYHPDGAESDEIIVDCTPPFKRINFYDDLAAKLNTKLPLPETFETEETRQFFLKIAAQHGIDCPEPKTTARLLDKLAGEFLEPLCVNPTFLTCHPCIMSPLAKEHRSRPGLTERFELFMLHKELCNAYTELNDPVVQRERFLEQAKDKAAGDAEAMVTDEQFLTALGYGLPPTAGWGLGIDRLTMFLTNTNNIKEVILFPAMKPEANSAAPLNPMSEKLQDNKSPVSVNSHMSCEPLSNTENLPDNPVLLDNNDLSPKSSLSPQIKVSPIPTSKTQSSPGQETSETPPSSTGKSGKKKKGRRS

The target in test [1] is T1, LlKRS (Loa loa, UniProt A0A1I7VQ84). The experiment in a line: Protein thermal shift assay, LlKRS. In kind it is binding. To be noted: ligand 20 μM, KRS 2 μM (10:1), 1 mM L-lysine. On the procedure:
(§1) Protein melt curve assays for both worm KRSs were performed as reported earlier. Both KRSs were diluted in buffer containing 20 mM Tris (pH 8.0), 200 mM NaCl, 5 mM MgCl2, 1 mM L-lysine and 2 X SYPRO orange dye (Life Technologies). […] Ligand bound and unbound samples of both KRSs were heated from 20 to 96°C at a rate of 1°C min^-1 and fluorescence signals were monitored by StepOnePlus quantitative real-time PCR system (Life Technologies). […] Each curve was an average of three measurements and data were analyzed using thermal shift software (Life technologies). Samples without the addition of ligands were used to determine thermal melting profile of apo proteins. […] Derivative Tm (melting temperature) was used for analysis.

For the next test, the target named is SmKRS (Schistosoma mansoni, UniProt A0A3Q0KK01). The experiment in a line: Protein thermal shift assay, SmKRS. In kind it is binding. To be noted: ligand 20 μM, KRS 2 μM (10:1), 1 mM L-lysine. As for the experimental part:
as §1

Test [2] deals with T1, LlKRS. The experiment in a line: Isothermal titration calorimetry, LlKRS. In kind it is binding. The following applies: 30°C, PBS pH 7.4, 1 mM L-Lys, 2 mM MgCl2; read-out: Kd (ITC), LlKRS. On the procedure:
ITC experiments were conducted at 30°C in the MicroCal ITC-200 apparatus (GE Healthcare) and results were fitted into graph using Microcal origin software. Both parasite KRSs were prepared in PBS (phosphate-buffered saline) pH 7.4 with 1 mM L-Lys and 2 mM MgCl2, and cladosporin was solubilized in the same buffer. Cladosporin at concentrations of 240 μM and 360 μM was titrated into 21 μM and 22.5 μM protein concentrations of SmKRS and LlKRS respectively. For LlKRS, titrations consisted of 0.4 μl of first injection followed by 39 injections of 1 μl with 150 s intervals between injections. For SmKRS, same titrations were performed with 120 s intervals. Titration of cladosporin in buffer alone was performed to determine the change in enthalpy caused by ligand dilution and then subtracted as background from the actual ligand-binding experiments. Limited protein precipitation with LlKRS during our multiple ITC experiments (in various conditions for n-value optimization trials) was observed and possibly contributed to the lower n-value, which nonetheless is verified as value of 1 based on the crystal structure of the enzyme-drug complex we present here.
(ITC needs no label: the signal is the heat of the interaction.)

In test [3] the target is LlKRS (L. loa lysyl-tRNA synthetase), wild type (Loa loa, UniProt A0A1I7VQ84). Put plainly: biochemical. To be noted: IC50, enzyme inhibition of wild type LlKRS, 500 nM enzyme, 100 μM ATP, 500 μM L-lysine, 18 μM SmtRNALys, 37°C.

Where “and” joins values, the source holds several entries; their conditions need not be identical. Equal entries are not always repeated.

As usually defined, the Kd is the constant that tells how readily two partners part at equilibrium. One may read the IC50 as the concentration that gives 50% inhibition. Low readings indicate inhibition by little substance, high ones a need for much substance. For `C[C@H]1CCC[C@H](C[C@H]2Cc3cc(O)cc(O)c3C(=O)O2)O1` [cladosporin], the “Thermal shift of LlKRS” value at LlKRS [1] was determined as 15.5 °C. For the same compound, the “Thermal shift of SmKRS” value on SmKRS amounted to 10.8 °C. In addition, at LlKRS [2], the dissociation constant Kd is 45.2 ± 8.4 nM. Besides, the IC50 in test [3] was 52 nM and ~52 nM.
